As a reminder, the LD50 is the dose at which mortality reaches 50%.

Consider two compounds from US3989835A, “Method of using 6-substituted amino phenyl-2,3,5,6-tetra-hydro[2,1-b]thiazoles for controlling gastrointestinal nematodes” (American Cyanamid Company, priority 1974, dated 1976).

Data set [1] in a line: in vivo. Conditions: for MTD: dog, Maximum Non-Lethal Dose for Dog. The method, then: Dogs infected with mature adult whipworms Trichuris vulpis were treated with various single or double doses of unsubstituted or substituted tetramisole analogs by the oral or subcutaneous route (Table XI hereinafter). Whipworms passed in the feces were collected for several days, and the whipworms still present determined at necropsy. Percent efficacy was determined in these "critical" tests. […] Trichuris is a type of nematode refactory to treatment with most prior anthelmintics at well tolerated doses. Taxonomically allied nematodes, e.g., Trichinella and Capillaria are also refractory to most anthelmintics.

A short description of data set [2]: in vivo. Conditions: for Dead/Total: mice. The text has this: Data on the acute oral toxicity to mice of various single oral doses of the above compounds and several analogs were obtained by conventional procedures, (Table IX hereinafter).

On to `c1ccc(C2CN3CCSC3=N2)cc1` (stereo not drawn) [l H, l-6-phenyl-2,3,5,6,-tetrahydroimidazo[2,1-b]thiazole, reference compound], for which, in the data set “in vivo [1]” (sc), the “Maximum Non-Lethal Dose for Dog, SC” value turned out to be 30 Mg./Kg.

Consider `c1ccc(C2CN3CCSC3=N2)cc1` (racemic) [dl-tetramisole, dl-6-phenyl-2,3,5,6-tetrahydroimidazo[2,1-b]thiazole, reference compound], for which the “Approx. LD50 /ED50” value in “in vivo [2]” (chemotherapeutic index, mouse oral, N. dubius, Table IX) was found to be 19. Further, in the data set “in vivo [2]” (mouse, in vivo, po, Approx. LD50), the LD50 stood at 175 mg/kg. The Dead/Total in the data set “in vivo [2]” (single oral dose 100 Mg./Kg.) is listed as 1/10; in “in vivo [2]” (single oral dose 150 Mg./Kg.) it was 8/30; in the data set “in vivo [2]” (single oral dose 200 Mg./Kg.) it was 15/20; in “in vivo [2]” (single oral dose 300 Mg./Kg.) it was 10/10. The values for the MTD in the data set “in vivo [1]” (po) and in “in vivo [1]” (sc) were > 20 mg/kg and 25 mg/kg, respectively.
